# Assay results from publication PMC12136037, “Type II kinase inhibitors that target Parkinson’s disease–associated LRRK2” (Science Advances, 2025).
# Protein sequences, listed by entry. Tags and fused reporters are not part of them. Residues count along the entry.
# UniProt Q13153, whole entry: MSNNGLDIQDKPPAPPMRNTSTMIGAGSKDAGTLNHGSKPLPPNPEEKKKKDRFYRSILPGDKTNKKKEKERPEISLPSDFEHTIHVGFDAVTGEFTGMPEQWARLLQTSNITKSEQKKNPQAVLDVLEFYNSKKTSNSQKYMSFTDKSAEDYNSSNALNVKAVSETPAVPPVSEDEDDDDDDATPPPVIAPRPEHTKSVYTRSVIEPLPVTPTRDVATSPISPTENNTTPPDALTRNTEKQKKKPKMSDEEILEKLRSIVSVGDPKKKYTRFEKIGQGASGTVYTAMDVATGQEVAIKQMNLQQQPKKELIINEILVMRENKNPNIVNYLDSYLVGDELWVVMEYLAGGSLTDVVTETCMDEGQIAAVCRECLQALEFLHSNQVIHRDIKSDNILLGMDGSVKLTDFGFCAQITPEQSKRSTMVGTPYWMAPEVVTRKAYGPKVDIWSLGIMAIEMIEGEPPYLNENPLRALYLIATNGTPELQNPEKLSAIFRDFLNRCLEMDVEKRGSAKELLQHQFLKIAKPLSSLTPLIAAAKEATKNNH
# UniProt P53355, whole entry: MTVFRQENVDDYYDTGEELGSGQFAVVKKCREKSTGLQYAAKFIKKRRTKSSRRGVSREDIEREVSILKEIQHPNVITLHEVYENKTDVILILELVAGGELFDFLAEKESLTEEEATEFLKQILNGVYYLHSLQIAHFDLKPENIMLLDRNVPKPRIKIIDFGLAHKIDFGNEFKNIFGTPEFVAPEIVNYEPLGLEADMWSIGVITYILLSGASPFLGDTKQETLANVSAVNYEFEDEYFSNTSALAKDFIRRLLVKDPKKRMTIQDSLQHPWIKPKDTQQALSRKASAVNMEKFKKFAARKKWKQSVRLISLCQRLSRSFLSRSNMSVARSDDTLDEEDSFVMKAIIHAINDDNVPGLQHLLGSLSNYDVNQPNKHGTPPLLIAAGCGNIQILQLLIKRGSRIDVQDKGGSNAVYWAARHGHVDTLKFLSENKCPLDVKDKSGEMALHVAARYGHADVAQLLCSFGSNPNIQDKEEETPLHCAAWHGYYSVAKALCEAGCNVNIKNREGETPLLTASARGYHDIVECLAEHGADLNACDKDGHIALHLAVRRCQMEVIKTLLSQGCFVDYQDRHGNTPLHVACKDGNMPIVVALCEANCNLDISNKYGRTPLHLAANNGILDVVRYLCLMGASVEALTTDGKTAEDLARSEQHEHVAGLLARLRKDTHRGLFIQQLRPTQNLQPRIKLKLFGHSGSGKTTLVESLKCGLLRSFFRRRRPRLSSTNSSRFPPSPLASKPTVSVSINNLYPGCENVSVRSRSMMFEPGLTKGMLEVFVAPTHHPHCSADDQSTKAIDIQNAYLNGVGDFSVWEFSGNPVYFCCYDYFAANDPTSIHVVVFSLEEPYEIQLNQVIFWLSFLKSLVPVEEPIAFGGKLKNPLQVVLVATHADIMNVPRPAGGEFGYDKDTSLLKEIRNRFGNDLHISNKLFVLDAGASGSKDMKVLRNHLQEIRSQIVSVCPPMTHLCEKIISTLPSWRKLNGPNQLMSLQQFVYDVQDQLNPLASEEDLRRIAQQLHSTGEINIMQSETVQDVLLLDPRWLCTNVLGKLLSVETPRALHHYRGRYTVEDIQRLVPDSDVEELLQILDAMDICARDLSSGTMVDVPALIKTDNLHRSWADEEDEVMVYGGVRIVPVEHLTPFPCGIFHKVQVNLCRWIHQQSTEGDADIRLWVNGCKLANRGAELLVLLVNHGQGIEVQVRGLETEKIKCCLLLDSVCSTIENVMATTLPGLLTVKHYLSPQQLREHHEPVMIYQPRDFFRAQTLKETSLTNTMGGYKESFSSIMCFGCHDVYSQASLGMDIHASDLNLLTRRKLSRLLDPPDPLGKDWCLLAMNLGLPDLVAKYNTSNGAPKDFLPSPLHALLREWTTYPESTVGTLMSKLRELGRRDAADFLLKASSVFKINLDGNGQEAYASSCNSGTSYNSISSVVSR
# UniProt O43293, whole entry: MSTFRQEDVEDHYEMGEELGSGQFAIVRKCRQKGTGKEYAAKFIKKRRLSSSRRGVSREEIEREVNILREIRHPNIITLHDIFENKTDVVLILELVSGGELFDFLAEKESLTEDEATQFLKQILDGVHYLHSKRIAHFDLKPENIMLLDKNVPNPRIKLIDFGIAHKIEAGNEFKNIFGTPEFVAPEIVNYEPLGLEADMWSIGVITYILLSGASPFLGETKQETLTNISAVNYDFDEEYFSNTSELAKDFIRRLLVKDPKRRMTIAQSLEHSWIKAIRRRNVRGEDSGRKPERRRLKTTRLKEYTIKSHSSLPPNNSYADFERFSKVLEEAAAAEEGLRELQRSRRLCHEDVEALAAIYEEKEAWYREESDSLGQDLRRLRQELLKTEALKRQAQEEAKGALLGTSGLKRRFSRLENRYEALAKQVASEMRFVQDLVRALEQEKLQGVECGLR
# UniProt Q8IU85, whole entry: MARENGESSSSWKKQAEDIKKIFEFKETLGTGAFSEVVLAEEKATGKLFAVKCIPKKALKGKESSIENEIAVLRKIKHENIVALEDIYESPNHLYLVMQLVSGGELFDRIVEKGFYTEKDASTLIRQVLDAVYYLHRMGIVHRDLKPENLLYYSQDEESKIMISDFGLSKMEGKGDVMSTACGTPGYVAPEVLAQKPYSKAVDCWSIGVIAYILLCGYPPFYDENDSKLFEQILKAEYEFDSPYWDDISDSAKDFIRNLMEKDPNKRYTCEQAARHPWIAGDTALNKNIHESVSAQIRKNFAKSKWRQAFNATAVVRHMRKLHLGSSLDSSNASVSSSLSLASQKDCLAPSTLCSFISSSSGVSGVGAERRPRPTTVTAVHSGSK
# UniProt P11309, whole entry: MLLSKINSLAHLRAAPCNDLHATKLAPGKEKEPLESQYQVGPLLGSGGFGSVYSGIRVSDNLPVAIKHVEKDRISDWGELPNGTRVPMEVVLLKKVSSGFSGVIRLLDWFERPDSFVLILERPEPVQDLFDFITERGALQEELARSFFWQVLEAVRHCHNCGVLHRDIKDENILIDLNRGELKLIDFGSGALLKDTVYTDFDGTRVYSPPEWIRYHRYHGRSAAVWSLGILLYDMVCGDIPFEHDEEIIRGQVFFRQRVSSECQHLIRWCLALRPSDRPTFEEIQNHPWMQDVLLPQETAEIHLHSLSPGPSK
# UniProt Q15375, 28-998 limits assumed: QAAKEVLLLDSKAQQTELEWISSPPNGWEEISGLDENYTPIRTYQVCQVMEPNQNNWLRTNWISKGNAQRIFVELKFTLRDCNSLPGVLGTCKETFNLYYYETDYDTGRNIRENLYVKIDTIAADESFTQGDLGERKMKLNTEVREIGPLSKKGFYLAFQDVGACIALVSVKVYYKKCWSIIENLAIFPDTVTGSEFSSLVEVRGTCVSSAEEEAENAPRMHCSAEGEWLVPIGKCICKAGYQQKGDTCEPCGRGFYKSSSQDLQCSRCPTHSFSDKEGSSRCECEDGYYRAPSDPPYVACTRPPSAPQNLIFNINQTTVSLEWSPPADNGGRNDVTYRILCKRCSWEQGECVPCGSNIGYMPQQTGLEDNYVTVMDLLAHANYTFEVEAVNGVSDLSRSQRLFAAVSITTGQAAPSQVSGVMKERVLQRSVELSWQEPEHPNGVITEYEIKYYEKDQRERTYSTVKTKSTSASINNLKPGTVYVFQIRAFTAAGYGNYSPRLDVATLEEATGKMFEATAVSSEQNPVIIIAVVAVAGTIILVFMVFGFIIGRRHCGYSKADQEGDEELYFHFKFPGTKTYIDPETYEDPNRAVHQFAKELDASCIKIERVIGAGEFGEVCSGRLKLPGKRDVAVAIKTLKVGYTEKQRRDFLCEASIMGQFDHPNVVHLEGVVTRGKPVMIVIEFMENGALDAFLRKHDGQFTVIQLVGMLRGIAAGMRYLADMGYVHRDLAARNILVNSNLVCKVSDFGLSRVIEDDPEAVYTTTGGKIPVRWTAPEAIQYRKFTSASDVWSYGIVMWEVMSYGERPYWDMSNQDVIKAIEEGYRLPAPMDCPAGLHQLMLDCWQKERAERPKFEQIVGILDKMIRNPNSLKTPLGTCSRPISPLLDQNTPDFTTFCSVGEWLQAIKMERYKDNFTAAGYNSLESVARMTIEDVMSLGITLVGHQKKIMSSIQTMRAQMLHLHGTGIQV
# UniProt O14965, whole entry: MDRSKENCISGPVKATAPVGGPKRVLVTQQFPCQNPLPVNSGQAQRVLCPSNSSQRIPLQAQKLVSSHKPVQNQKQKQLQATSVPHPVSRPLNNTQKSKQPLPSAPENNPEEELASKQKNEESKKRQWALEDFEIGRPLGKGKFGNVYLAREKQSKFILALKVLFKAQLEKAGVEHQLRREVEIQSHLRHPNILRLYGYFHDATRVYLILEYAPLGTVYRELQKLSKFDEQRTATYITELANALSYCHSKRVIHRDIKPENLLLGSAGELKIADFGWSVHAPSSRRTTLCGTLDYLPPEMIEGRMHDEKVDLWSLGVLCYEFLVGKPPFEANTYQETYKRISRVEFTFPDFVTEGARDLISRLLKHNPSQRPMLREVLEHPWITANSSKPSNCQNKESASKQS
# UniProt Q96GD4, whole entry: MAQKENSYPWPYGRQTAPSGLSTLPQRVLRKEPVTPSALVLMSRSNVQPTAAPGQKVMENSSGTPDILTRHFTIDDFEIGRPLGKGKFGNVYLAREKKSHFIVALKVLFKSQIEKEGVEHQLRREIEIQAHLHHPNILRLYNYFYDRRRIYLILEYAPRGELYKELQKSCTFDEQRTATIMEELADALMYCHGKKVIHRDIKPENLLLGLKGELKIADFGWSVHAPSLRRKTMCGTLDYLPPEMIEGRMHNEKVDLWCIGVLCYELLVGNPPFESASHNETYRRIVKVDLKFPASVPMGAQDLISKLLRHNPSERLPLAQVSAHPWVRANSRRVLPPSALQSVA
# UniProt P27448, whole entry: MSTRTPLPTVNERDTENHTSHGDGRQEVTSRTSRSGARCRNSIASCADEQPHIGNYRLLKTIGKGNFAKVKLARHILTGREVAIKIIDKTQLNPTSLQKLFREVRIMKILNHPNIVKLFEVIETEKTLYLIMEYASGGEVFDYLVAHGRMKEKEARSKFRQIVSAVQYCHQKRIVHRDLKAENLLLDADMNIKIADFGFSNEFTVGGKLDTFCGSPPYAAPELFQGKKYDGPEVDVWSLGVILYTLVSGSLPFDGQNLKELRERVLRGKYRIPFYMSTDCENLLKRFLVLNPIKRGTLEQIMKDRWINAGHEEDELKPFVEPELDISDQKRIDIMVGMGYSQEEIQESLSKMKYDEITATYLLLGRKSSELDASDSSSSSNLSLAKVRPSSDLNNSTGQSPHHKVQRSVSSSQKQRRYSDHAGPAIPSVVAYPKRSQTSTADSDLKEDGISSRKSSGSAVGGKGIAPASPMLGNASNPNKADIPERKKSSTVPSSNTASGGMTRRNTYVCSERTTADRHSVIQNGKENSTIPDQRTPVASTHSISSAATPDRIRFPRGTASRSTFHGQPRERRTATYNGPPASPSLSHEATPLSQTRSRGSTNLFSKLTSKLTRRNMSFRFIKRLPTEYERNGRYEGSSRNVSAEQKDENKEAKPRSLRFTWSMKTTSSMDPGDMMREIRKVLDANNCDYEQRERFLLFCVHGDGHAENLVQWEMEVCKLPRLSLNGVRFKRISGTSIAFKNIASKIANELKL
# UniProt Q16539, whole entry: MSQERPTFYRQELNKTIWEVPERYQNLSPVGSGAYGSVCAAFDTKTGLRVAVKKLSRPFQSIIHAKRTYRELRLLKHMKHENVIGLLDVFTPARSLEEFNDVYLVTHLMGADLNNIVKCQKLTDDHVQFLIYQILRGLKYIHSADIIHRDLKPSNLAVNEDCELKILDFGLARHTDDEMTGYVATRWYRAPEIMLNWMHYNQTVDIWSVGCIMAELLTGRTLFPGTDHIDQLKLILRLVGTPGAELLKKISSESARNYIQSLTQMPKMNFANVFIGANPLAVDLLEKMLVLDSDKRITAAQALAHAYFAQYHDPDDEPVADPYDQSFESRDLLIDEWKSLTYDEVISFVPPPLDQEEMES
# UniProt P53779, whole entry: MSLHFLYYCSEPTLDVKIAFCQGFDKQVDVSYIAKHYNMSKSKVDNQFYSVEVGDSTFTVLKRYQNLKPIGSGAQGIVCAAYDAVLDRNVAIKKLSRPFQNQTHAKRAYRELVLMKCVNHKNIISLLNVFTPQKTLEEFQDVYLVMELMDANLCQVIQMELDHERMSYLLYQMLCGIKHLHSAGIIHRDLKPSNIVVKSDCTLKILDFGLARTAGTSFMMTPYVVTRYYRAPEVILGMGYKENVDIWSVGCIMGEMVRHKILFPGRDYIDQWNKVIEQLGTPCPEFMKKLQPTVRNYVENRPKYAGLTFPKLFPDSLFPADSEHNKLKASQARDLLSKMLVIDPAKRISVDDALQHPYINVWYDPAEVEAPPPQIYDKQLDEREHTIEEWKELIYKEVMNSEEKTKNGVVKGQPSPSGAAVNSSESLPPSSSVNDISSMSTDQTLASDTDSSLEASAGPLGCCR
# How the values were obtained:
# Experiment in all cases: DSF 100 kinase selectivity screen;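 on dTm: compound tested at 20 µM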
# Type in all cases: binding
# [1] = target: ~100 representative kinases (Homo sapiens, UniProt P68400); conditions: Protein CK2A1; average of three replicates
# [2] = target: ~100 representative kinases (Homo sapiens, UniProt Q13153); conditions: protein PAK1; average of three replicates
# [3] = target: ~100 representative kinases (Homo sapiens, UniProt O75582); conditions: Protein RPS6KA5; DSF; average of three replicates
# [4] = target: ~100 representative kinases (Homo sapiens, UniProt Q9NSY1); conditions: Protein BMP2K; average of three replicates
# [5] = system: ~100 representative kinases
# [6] = target: ~100 representative kinases (Homo sapiens, UniProt P53355); conditions: Protein DAPK1; average of three replicates
# [7] = target: ~100 representative kinases (Homo sapiens, UniProt Q9UEW8); conditions: Protein STK39; DSF; average of three replicates
# [8] = target: ~100 representative kinases (Homo sapiens, UniProt P49137); conditions: protein MAPKAPK2; average of three replicates
# [9] = target: ~100 representative kinases (Homo sapiens, UniProt Q9H2X6); conditions: protein HIPK2; average of three replicates
# [10] = target: ~100 representative kinases (Homo sapiens, UniProt O43293); conditions: Protein DAPK3; average of three replicates
# [11] = target: ~100 representative kinases (Homo sapiens, UniProt Q99986); conditions: Protein VRK1; DSF; average of three replicates
# [12] = target: ~100 representative kinases (Homo sapiens, UniProt P48730); conditions: Protein CSNK1D; average of three replicates
# [13] = target: ~100 representative kinases (Homo sapiens, UniProt O15075); conditions: Protein DCAMKL1; average of three replicates
# [14] = target: ~100 representative kinases (Homo sapiens, UniProt Q8IU85); conditions: Protein CAMK1D; average of three replicates
# [15] = target: ~100 representative kinases (Homo sapiens, UniProt P16083); conditions: protein NQO2; average of three replicates
# [16] = target: ~100 representative kinases (Homo sapiens, UniProt P11309); conditions: protein PIM1; average of three replicates
# [17] = target: ~100 representative kinases (Homo sapiens, UniProt Q15375); conditions: Protein EPHA7; average of three replicates
# [18] = target: ~100 representative kinases (Homo sapiens, UniProt O14965); conditions: Protein STK6; DSF; average of three replicates
# [19] = target: ~100 representative kinases (Homo sapiens, UniProt Q9UPE1); conditions: Protein SRPK3; DSF; average of three replicates
# [20] = target: ~100 representative kinases (Homo sapiens, UniProt P54764); conditions: Protein EPHA4; average of three replicates
# [21] = target: ~100 representative kinases (Homo sapiens, UniProt P54753); conditions: Protein EPHB3A; average of three replicates
# [22] = target: ~100 representative kinases (Homo sapiens, UniProt Q96GD4); conditions: Protein AURKB; average of three replicates
# [23] = target: ~100 representative kinases (Homo sapiens, UniProt O94804); conditions: Protein STK10; DSF; average of three replicates
# [24] = target: ~100 representative kinases (Homo sapiens, UniProt P54756); conditions: Protein EPHA5; average of three replicates
# [25] = target: ~100 representative kinases (Homo sapiens, UniProt P27448); conditions: protein MARK3; average of three replicates
# [26] = target: ~100 representative kinases (Homo sapiens, UniProt P15056); conditions: Protein BRAF; average of three replicates
# [27] = target: ~100 representative kinases (Homo sapiens, UniProt P49761); conditions: Protein CLK3; average of three replicates
# [28] = target: ~100 representative kinases (Homo sapiens, UniProt Q16539); conditions: protein MAPK14; average of three replicates
# [29] = target: ~100 representative kinases (Homo sapiens, UniProt Q9UKI8); conditions: Protein TLK1; DSF; average of three replicates
# [30] = target: ~100 representative kinases (Homo sapiens, UniProt O14733); conditions: protein MAP2K7; average of three replicates
# [31] = target: ~100 representative kinases (Homo sapiens, UniProt P15735); conditions: protein PHKG2; average of three replicates
# [32] = target: ~100 representative kinases (Homo sapiens, UniProt Q5VT25); conditions: Protein CDC42BPA; average of three replicates
# [33] = target: ~100 representative kinases (Homo sapiens, UniProt P53779); conditions: protein MAPK10; average of three replicates
# [34] = target: ~100 representative kinases (Homo sapiens, UniProt Q99640); conditions: protein PKMYT1; average of three replicates
compound,measurement,setting,value
Cc1ccc(C(=O)Nc2ccc(CN3CCN(C)CC3)c(C(F)(F)F)c2)cc1C#Cc1ccc2cn[nH]c2c1,dTm,[1],-0.07 K
same,dTm,[2],-0.45 K
same,dTm,[3],1.23 K
same,dTm,[4],3.84 K
same,S (5 K) / share of screened kinases stabilized,"[5]; DSF selectivity panel, thermal shift >5 K",27%
same,dTm,"[5]; Protein BRD, average of three replicates",-1.79 K
same,S(5K),[5]; number of kinases with thermal shift >5 K divided by total number of kinases screened,0.27
same,# >5K,[5]; number of proteins of the DSF panel with dTm >5K,27
same,S(5K),[5]; selectivity score: # >5K divided by # of proteins tested in the DSF panel,0.267
same,dTm,[6],-1.06 K
same,dTm,[7],3.55 K
same,dTm,[8],-0.91 K
same,dTm,[9],-2.23 K
same,dTm,[10],-1.05 K
same,dTm,[11],-0.86 K
same,dTm,[12],1.68 K
same,dTm,[13],2.09 K
same,dTm,[14],5.08 K
same,dTm,[15],0.94 K
same,dTm,[16],-3.55 K
same,dTm,[17],4.22 K
same,dTm,[18],8.48 K
same,dTm,[19],7.84 K
same,dTm,[20],-10.30 K
same,dTm,[21],7.00 K
same,dTm,[22],5.30 K
same,dTm,[23],16.53 K
same,dTm,[24],9.20 K
same,dTm,[25],-1.47 K
same,dTm,[26],40.88 K
same,dTm,[27],1.91 K
same,dTm,[28],7.02 K
same,dTm,[29],-4.46 K
same,dTm,[30],2.80 K
same,dTm,[31],-3.85 K
same,dTm,[32],-0.16 K
same,dTm,[33],-1.46 K
same,dTm,[34],-7.35 K
